## Binding of CDR-mutated scFvs to a peptide of the spike HR2 region

Target: peptide PDVDLGDISGINAS, taken from heptad repeat 2 (HR2) of SARS-CoV-2 spike.

Parent scFv Ab-14: VH joined to VL by the linker GGGGSGGGGSGGGGS. Changes lie in the heavy chain CDRs alone.
VH: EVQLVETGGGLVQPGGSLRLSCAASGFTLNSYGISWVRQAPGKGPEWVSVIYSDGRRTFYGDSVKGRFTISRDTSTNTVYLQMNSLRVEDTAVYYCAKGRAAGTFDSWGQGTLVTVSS
VL: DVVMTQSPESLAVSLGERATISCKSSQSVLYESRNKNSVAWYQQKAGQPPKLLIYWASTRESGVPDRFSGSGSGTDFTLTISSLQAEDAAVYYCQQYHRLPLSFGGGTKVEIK

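Library AAYL49 holds single substitutions and randomly drawn double and triple substitutions in the CDRs. In AlphaSeq, yeast of one mating type display the scFv and yeast of the other type display the target. After mating in shaken culture at 30 °C for 16 h, diploids were selected and their barcode pairs sequenced. Read counts were normalised to the haploid input and turned into Kd by a linear fit to BCL2-family pairs of known affinity, for each replicate. The assay was run in three technical replicates.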

Changes read parent residue, position, new residue, counted from the first residue of the VH shown.
The Kd shown is the geometric mean over detected replicates; a lower Kd is a better binder.
"nd" marks a missing value. The strain was present, yet no cells mated with the target were sequenced in any replicate, which points to weak or no binding.
In this assay the parent's reference entry averaged 4.4 nM; its copy inside this library read 13 µM (one replicate of three).
Background: pairings of library AAYL49 with three empty control strains gave a value in 15% of cases (median 11 µM, 5th percentile 680 nM). Values in that range, when seen in few replicates, are hard to tell from nonspecific mating.

Kd | detected | changes
76 nM | 1/3 | F27H/G55W/T104C
89 µM | 2/3 | F27W/S31R/G61Y
nd | 0/3 | L29M/R57G/T58R
nd | 0/3 | I51E/R57H/S63D
nd | 0/3 | L29N/R100V/S107T
33 nM | 3/3 | T58R/K65I/S107L
nd | 0/3 | Y32G/T58W/S63M
nd | 0/3 | Y32S/S35P/Y60Q
8.0 µM | 1/3 | F27I/R56T/G99R
100 µM | 1/3 | F59H/V64D/D106M
nd | 0/3 | G26E/Y32A/T104P
nd | 0/3 | V50R/I51F/G103R
11 µM | 1/3 | V50D/G103A/T104A
nd | 0/3 | I51G/S107L
nd | 0/3 | G33S/D54C/G99Q
nd | 0/3 | D62S/A102R
nd | 0/3 | Y52C/G55Y/T58V
nd | 0/3 | V50E/R56Y/T104V
63 µM | 3/3 | F27L/I51S/S107C
58 µM | 1/3 | I51M/D54V/G61I
190 µM | 1/3 | G26A/S31E
nd | 0/3 | G55A/D62L/S107R
17 nM | 3/3 | F59S/T104E/D106K
350 nM | 3/3 | F27S/R100T/T104F
20 µM | 1/3 | S31Y/Y32K/S63K
32 µM | 2/3 | F27R/S53K/D106T
100 µM | 2/3 | N30M/G55Q
7.4 nM | 3/3 | G99D/R100D/A102P
640 µM | 1/3 | V50K/I51N/D106L
nd | 0/3 | D54F/R56Y/R100Q
nd | 0/3 | S31Q/G55M/T58I
11 nM | 3/3 | T58S/A102M
59 nM | 3/3 | S53Y/R56C/R100D
4.9 µM | 1/3 | F59V/Y60D/T104Y
640 nM | 1/3 | I34Y/G99K/A101V
nd | 0/3 | F27V/I34C
nd | 0/3 | D54P/G55M/D106N
nd | 0/3 | G55V/F59Y/D106H
nd | 0/3 | G26I/Y60M/A101W
nd | 0/3 | Y52F/S53I/S63P
8.8 µM | 1/3 | R57H/S63R/A101P
1.2 µM | 3/3 | D62T/A102Y/D106V
nd | 0/3 | S31E/G55V/F105G
52 µM | 3/3 | R57K/F105V/S107V
nd | 0/3 | I51D/S53C/A101V
nd | 0/3 | S31R/Y32A/A102C
nd | 0/3 | K65F/A102E
250 nM | 3/3 | G26K/A102C/S107P
nd | 0/3 | L29K/S35V/G103W
6.5 µM | 3/3 | Y52F/R56M/G61N
6.4 µM | 1/3 | F27A/L29E
nd | 0/3 | F27G/V50M/T104H
1.4 µM | 1/3 | V50M/D62L/D106P
1.2 nM | 3/3 | S53A/G103D/T104R
nd | 0/3 | S63Y/A101W/A102N

Again, the first 4 entries without any signal:

changes | Kd | detected
L29M/R57G/T58R | nd | 0/3
I51E/R57H/S63D | nd | 0/3
L29N/R100V/S107T | nd | 0/3
Y32G/T58W/S63M | nd | 0/3

The measurements come from Engelhart et al. 2022 (doi:10.1038/s41597-022-01779-4) through the FLAb antibody collection.